Drawing on patent publication US9163256B2, “Mutant receptors and their use in a nuclear receptor-based inducible gene expression system” (priority 2004, dated 2015), this text covers EC50 for one compound.

The chains behind the UniProt entries cited, without tags or fusion partners.
UniProt O77255, entry or part of it L506K: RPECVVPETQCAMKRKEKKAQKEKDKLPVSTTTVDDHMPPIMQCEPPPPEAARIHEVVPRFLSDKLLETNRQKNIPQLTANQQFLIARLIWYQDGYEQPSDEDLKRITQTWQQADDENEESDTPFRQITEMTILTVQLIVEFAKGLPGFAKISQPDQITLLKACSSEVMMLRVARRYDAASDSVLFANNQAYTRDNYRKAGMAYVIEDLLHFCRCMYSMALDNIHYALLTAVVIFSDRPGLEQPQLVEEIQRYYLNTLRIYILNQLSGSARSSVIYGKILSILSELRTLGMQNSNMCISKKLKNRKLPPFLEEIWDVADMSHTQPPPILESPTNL

The assay concerns the target CfEcR-DEF mutant L223K (Choristoneura fumiferana, UniProt O77255, L506K). The assay is described as follows: GAL4-driven luciferase reporter assay in NIH3T3 cells. Format: cell-based. As for the experimental part: This construct was prepared in the same way as in switch 1.1 above except wild-type CfEcR-DEF was replaced with mutant CfEcR-DEF comprising a ligand binding domain comprising a substitution mutation selected from Table 1 below.
DNAs were transfected into mouse NIH3T3 cells (ATCC) as follows. Standard methods for culture and maintenance of the cells were followed. Cells were harvested and plated 96-well plates at 2,500 cells per well, in 50 μL of growth medium containing 10% fetal bovine serum (FBS). Twenty-four hours later, the cells were treated with 35 μL of serum-free growth medium containing either dimethylsulfoxide (DMSO; control) or a DMSO solution of ligand. The cells were then transfected using Superfect (Qiagen Inc.) transfection reagent. For each well, 0.625 μL of Superfect was mixed with 14.2 μL of serum-free growth medium. 0.16 μg of reporter construct and 0.04 μg of each receptor construct were added to the transfection reagent mix. […]
Reporter Assays: Cells were harvested 40 hours after adding ligands. […] Luciferase activity was measured using Dual-Luciferase reporter assay system from Promega Corporation following the manufacturer's instructions. Fold induction (FI) activities were calculated by dividing relative light units (“RLU”) in ligand treated cells with RLU in DMSO treated cells (untreated control).
(In general: Reporter assays use an easily measured gene product as a stand-in for the process of interest.)

Consider `CCc1c(C(=O)NN(C(=O)c2cc(OC)c(C)c(OC)c2)C(C=C(C)C(C)(C)C)C(C)(C)C)ccc2c1OCCO2` (stereo not shown) [RG-115898, 3,5-dimethoxy-4-methyl-benzoic acid N-(1-tert-butyl-3,4,4-trimethyl-pent-2-enyl)-N′-(5-ethyl-2,3-dihydro-benzo[1,4]dioxine-6-carbonyl)-hydrazide], for which the concentration giving a half-maximal response (EC50) – broadly, the midpoint of the concentration-response curve – was 0.28 µM.
